Measurements as given in ChEMBL document CHEMBL4402597, “Truncated (N)-Methanocarba Nucleosides as Partial Agonists at Mouse and Human A3 Adenosine Receptors: Affinity Enhancement by N6-(2-Phenylethyl) Substitution” (J Med Chem, 2020).

Columns and labels:
Homo sapiens = species: Homo sapiens; test: Selectivity ratio of Ki for displacement of [3H]R-PIA from recombinant human A1AR expressed in HEK293 cell membranes to Ki for displacement of [125I]I-AB-MECA from recombinant human A3AR expressed in HEK293 cell membranes; type: cell-based
Mus musculus = species: Mus musculus; test: Selectivity ratio of Ki for displacement of [3H]R-PIA from recombinant mouse A1AR expressed in HEK293 cell membranes to Ki for displacement of [125I]I-AB-MECA from recombinant mouse A3AR expressed in HEK293 cell membranes; type: cell-based

SMILES | Ratio Ki (Homo sapiens) | Ratio Ki (Mus musculus)
COc1cc(CCNc2nc(C#Cc3ccccc3F)nc3c2ncn3[C@H]2[C@H](O)[C@H](O)[C@@H]3C[C@@H]32)ccc1O | 30 | –
COc1cc(CCNc2nc(C#Cc3ccc(Br)s3)nc3c2ncn3[C@H]2[C@H](O)[C@H](O)[C@@H]3C[C@@H]32)ccc1O | – | > 1000
